We go through two compounds from US5925769A, “Acetylenic 1,5-diarylpyrazoles as antiinflammatory agents” (Ortho Pharmaceutical, Corp., priority 1998, dated 1999).

This experiment concerns the target T1, CO (Rattus norvegicus, UniProt Q63921).
T1 construct: the supernatant was saved as the source of enzymes; endogenous in cells; host or cells: RBL-1 (rat basophilic leukemia) cells
T1 sequence (Q63921 27-602): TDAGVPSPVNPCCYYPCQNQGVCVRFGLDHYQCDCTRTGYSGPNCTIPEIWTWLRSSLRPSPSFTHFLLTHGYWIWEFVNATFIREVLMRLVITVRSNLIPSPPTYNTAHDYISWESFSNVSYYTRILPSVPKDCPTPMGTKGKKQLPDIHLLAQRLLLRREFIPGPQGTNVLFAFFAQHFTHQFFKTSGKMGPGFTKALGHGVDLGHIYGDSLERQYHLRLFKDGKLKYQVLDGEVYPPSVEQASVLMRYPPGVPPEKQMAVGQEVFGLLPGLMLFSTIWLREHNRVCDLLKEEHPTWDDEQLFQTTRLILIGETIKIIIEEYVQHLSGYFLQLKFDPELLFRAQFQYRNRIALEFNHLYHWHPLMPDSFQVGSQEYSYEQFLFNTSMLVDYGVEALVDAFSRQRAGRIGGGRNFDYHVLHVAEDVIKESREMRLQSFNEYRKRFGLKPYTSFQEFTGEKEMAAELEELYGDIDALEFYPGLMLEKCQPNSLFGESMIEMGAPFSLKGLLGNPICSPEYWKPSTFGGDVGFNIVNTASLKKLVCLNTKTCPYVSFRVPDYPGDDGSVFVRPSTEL
Briefly: Procedure III: CO (PgD2) in intact RBL-1 cells. The experiment is classed as cell-based. As to the method:
The IC50 was determined using a curve fit in Cricket Graph (Computer Associated), which provided the equation of the regressed line used in the calculation.
In Procedure III, the ability to inhibit 5-LO and CO in intact RBL-1 cells was also evaluated. […] Cells were collected by centrifugation, washed once in HBSS, and resuspended at a concentration of 1×10^5 cells/mL. Cells were incubated in the presence of vehicle or drug then centrifuged at 800×g for 10 minutes at 4° C. The supernatant was removed by aspiration and the cells were resuspended in 0.5 mL of HBSS. […] The conversion of AA to 5-LO products was initiated by the addition of 10 μL (50 μCi) of 1-^14 C-AA. Products were isolated by acidification and extraction, followed by thin layer chromatography analysis as described above. Radioactive areas corresponding to authentic 5-LO (5-HETE) and CO (PgD2) products were quantitated by the Bioscan 2000 Imaging System and the IC50 was calculated as above.

The IC50 is the midpoint of a concentration-inhibition curve. A low value points to higher potency. In turn, `COc1ccc(-n2nc(C#CCN(O)C(=O)c3ccccc3)cc2-c2ccc(C)cc2)cc1` [Cpd 15] displayed an IC50 of 930 nM. With `COc1ccc(-n2nc(C#CC(C)N(O)C(=O)N3CCCCC3)cc2-c2ccc(Cl)cc2)cc1` (centres unmarked) [Cpd 9] the figure was 690 nM.
